From patent US5278174A, “Sigma binding site agents” (priority 1991, dated 1994)

By UniProt entry, the sequences of proteins in these tests, tags left out.
UniProt Q60492, whole entry: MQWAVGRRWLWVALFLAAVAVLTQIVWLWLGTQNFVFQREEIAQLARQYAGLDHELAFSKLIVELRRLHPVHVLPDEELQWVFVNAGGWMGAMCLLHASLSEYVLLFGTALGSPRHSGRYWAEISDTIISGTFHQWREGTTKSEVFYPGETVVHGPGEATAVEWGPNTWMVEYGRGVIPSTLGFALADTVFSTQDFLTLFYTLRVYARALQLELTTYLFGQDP

Target: T1, sigma sites (Cavia porcellus, UniProt Q60492)
T1 construct: Frozen whole guinea pig brains; tissue Pel-Freez, Rogers, Ariz; host or cells: whole guinea pig brain membranes
Assay: Sigma receptor binding assay, [3H](+)-3-PPP
Conditions: 4 nM [3H](+)-3-PPP; guinea pig whole brain; room temperature, 45 minutes; read-out: Receptor Potency Sigma PPP (IC50, nMol)

## OC(CCCN1CCN(c2ncc(F)cn2)CC1)c1ccc(F)cc1 (stereo not shown) [BMY14802, reference compound]
  pIC50: 6.50

pIC50: −log10 of the molar value.
